# Measurements reported in PubChem BioAssay AID504692 (The Scripps Research Institute Molecular Screening Center, 2011).
# By UniProt entry, the sequences of proteins in these tests, tags left out.
# UniProt P47898, whole entry: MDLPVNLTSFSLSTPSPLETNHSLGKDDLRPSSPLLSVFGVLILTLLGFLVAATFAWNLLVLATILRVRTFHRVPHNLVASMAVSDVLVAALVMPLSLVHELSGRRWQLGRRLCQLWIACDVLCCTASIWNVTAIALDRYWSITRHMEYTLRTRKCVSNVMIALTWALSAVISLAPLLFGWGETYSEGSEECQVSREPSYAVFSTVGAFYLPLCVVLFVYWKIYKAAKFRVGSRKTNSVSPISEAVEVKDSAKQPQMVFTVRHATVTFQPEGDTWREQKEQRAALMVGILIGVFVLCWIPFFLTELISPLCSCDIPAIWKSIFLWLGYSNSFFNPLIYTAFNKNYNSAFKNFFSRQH
# This is a selection; strong and weak results do not stand in their true shares. Some of these compounds have results that are not shown, active ones among them. The source made the active and inactive calls. Cut-off read from the data, not from the text of the source: active = activation mostly above about 9.5% (no sharp cut-off); inactive = mostly below about 7.6%.
# Target: 5-hydroxytryptamine receptor 5A (Homo sapiens) (UniProt P47898)
# Assay: HTR5A agonists in luminescence cell assay, primary screen, counter-screen for OPRM1-OPRD1 heterodimer agonist project, full-deck HTS (AID 504692);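 note: 0% = cells with vehicle only and 100% = reference agonist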
# Conditions: cell-based, at 9.3 µM, active compounds read high
row,Compound,activation
1,O=C(OC1CN2CCC1CC2)C(CO)(c1ccccc1)c1ccccc1 (stereo not given),inactive: -4.98%
2,CN(C)c1cccc(C(=O)NCC2(N(C)C)CCCCC2)c1,inactive: 0.14%
3,CC(C)Oc1ccc(C(=O)NCC2(N(C)C)CCCCC2)cc1,inactive: 0.1%
4,O=C(OCCN1CCCC1)C(O)(c1ccccc1)c1ccccc1,inactive: 1.26%
5,COc1ccc(Br)c(C(=O)NCC2(N3CCCCC3)CCCCC2)c1,inactive: -1.36%
6,COc1cc(C(=O)NCC2(N(C)C)CCCCC2)c([N+](=O)[O-])cc1OC,inactive: -1.2%
7,CN(C)C1(CNC(=O)c2ccc(Br)cc2)CCCCC1,inactive: -0.71%
8,O=C(NCC1(N2CCCCC2)CCCCC1)c1cccc(Cl)c1,inactive: 1.28%
9,COc1cccc(C(=O)NCC2(N3CCCCC3)CCCCC2)c1,inactive: 0.68%
10,COc1ccc(Cl)cc1C(=O)NCC1(N(C)C)CCCCC1,inactive: 6.43%
11,Cc1ccccc1C(=O)NCC1(N2CCCCC2)CCCCC1,inactive: -1.47%
12,CN(C)C1CCCC1OC(=O)C(O)(c1ccccc1)c1ccccc1 (stereo not given),inactive: 3.56%
13,CN(C)c1ccc(C(=O)NCC2(N(C)C)CCCCC2)cc1,inactive: -4.26%
14,Cc1cc(C(=O)NCC2(N3CCCCC3)CCCCC2)ccc1[N+](=O)[O-],inactive: -4.16%
15,CCN1CCCC(OC(=O)C2(O)c3ccccc3C=Cc3ccccc32)C1 (stereo not given),inactive: 5.81%
16,O=C(NCC1(N2CCCCC2)CCCCC1)c1cccc(Br)c1,inactive: 4.82%
17,COc1ccc(C(=O)NCC2(N(C)C)CCCCC2)cc1,inactive: -5.19%
18,C=CCN1CCN(CCOC(=O)C(O)(c2ccccc2)c2ccccc2)CC1,inactive: 2.59%
19,O=C(NCC1(N2CCCCC2)CCCCC1)c1cc(F)c(F)cc1Cl,inactive: 0.68%
20,CN1[C@@H]2CC[C@H]1CC(OC(=O)C(O)(c1ccccc1)c1ccccc1)C2 (stereo not given in full),inactive: -1.62%
21,O=C(NCC1(N2CCCCC2)CCCCC1)c1cc([N+](=O)[O-])ccc1Cl,inactive: 0.68%
22,Cc1ccc(C(=O)NCC2(N3CCCCC3)CCCCC2)cc1,inactive: 3.53%
23,CC(C)N1C(=O)CC2(CCN(CCOC(=O)C(O)(c3ccccc3)c3ccccc3)CC2)C1=O,inactive: 1.43%
24,CCN(CC)CC(C)C(C)OC(=O)C(O)(c1ccccc1)c1ccccc1 (stereo not given),inactive: 2.01%
25,COc1cc(SC)ccc1C(=O)NCC1(N(C)C)CCCCC1,inactive: -4.02%
